Values quoted from earlier work, collected in US7238658B2 (Genentech, Inc., priority 2001, dated 2007).

Sequences of proteins named here, by UniProt entry; tags and fusion partners are left off. Residues count along the entry.
UniProt P08069, 741-1367 partner limits assumed: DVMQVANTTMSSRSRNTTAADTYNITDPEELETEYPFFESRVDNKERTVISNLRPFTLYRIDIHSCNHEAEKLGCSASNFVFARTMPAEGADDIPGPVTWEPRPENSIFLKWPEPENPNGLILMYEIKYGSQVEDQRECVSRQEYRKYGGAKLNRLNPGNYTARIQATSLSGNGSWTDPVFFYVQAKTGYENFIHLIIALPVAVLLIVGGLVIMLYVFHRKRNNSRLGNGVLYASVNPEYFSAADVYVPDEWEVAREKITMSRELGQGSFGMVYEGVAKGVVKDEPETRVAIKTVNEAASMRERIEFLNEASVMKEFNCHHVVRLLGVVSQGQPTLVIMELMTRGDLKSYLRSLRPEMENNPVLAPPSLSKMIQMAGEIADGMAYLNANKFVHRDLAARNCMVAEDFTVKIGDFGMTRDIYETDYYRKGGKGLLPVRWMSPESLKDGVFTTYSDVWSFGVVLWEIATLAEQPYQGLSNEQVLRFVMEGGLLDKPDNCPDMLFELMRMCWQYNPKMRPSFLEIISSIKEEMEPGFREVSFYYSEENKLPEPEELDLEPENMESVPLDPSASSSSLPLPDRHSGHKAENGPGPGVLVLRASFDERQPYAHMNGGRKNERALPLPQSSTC
UniProt P08069, 31-736 limits assumed: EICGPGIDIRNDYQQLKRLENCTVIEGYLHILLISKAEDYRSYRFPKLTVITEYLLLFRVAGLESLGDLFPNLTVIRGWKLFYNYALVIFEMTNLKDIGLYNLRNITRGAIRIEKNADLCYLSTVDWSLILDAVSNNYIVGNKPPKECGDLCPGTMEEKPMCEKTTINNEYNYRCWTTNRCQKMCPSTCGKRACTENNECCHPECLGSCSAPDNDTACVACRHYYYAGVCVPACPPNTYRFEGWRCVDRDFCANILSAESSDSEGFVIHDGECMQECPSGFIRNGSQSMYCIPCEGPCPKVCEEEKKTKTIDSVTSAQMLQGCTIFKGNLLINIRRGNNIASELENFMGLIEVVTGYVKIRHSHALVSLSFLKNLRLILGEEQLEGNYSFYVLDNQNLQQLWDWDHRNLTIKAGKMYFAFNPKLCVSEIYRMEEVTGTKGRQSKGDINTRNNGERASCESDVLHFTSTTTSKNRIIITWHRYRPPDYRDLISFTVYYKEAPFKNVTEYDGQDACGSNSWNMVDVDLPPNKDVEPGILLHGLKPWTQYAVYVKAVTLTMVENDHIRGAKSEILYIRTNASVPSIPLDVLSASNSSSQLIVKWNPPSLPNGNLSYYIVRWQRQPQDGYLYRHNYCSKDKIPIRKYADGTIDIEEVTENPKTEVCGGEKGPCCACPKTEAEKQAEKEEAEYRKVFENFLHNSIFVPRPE

Target: IGF-1R (Homo sapiens, UniProt P08069)
Conditions: read-out: Kd, low affinity site of IGF-1R; cited from earlier work

IGF-1: human insulin-like growth factor-1, native mature sequence (SEQ ID NO: 1), recombinant from E. coli
Kd: ~6 nM
